For the assay, the target named is T1, Toll-like receptor 8 (Homo sapiens) (UniProt Q9NR97).
T1 sequence (whole entry): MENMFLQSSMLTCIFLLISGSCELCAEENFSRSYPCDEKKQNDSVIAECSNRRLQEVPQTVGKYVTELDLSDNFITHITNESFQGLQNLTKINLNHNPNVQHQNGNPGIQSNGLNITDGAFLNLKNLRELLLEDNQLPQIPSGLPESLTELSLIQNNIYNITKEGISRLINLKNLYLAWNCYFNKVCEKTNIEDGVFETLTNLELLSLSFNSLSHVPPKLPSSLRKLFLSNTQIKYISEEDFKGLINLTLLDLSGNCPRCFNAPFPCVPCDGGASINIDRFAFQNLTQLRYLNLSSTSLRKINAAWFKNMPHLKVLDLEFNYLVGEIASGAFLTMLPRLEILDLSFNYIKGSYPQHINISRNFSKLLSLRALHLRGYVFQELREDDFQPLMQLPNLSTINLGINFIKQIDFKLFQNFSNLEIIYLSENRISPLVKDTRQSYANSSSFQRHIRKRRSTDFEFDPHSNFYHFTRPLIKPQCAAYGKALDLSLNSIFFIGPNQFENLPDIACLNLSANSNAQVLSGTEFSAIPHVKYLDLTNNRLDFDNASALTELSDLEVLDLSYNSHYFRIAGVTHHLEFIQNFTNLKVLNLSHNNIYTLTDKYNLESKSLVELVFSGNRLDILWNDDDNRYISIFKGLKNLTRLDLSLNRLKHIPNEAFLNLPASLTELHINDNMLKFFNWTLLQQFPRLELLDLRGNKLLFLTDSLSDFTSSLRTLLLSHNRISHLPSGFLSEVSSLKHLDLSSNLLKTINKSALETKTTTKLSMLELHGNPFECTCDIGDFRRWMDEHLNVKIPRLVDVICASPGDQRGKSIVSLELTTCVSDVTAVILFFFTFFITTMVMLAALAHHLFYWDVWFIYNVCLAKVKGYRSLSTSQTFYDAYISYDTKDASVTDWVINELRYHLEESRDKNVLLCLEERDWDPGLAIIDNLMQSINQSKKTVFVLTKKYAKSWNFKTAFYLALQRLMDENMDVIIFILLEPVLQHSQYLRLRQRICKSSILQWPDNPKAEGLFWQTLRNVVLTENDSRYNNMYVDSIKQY
The experiment in a line: Antagonist activity at human TLR8 expressed in HEK-Blue cells assessed as inhibition of CL075-induced NFkappaB activation by measuring reduction in SEAP level up to 50 uM after overnight incubation using qunati-blue reagent by SEAP reporter gene-based spectrophotometric method. Format: cell-based.

Calls of active or inactive are those of the source. The rule behind the calls is not given here.

Take `CCN1CCN(CCCn2cnc3c(N4CCN(C5CCCC5)CC4)ncnc32)CC1`: the inhibition entry is “inactive”.

(Values after ChEMBL document CHEMBL4402605, “A Chemical Switch for Transforming a Purine Agonist for Toll-like Receptor 7 to a Clinically Relevant Antagonist” (J Med Chem, 2020).)
